In PMC9026286, “Bacterial Lipodepsipeptides and Some of Their Derivatives and Cyclic Dipeptides as Potential Agents for Biocontrol of Pathogenic Bacteria and Fungi of Agrarian Plants” (Journal of Agricultural and Food Chemistry, 2022):

Legend:
[1] = tested on: Pseudomonas syringae pv. tabaci ICMP2706; conditions: strain ICMP2706, 24 ± 48 h at 25 or 37 °C, triplicate
[2] = tested on: Colletotrichum truncatum 17-5-5; conditions: strain 17-5-5; cyclic dipeptides, serial dilutions from 10 to 1000 μg/mL, potato dextrose broth, 24-well plates, 28 °C, 7 days; lowest concentration with no visible growth; triplicate
[3] = tested on: Pseudomonas syringae pv. japonica ICMP6305; conditions: strain ICMP6305, 24 ± 48 h at 25 or 37 °C, triplicate
[4] = tested on: Pseudomonas syringae pv. panici ICMP3955; conditions: strain ICMP3955, 24 ± 48 h at 25 or 37 °C, triplicate
[5] = tested on: Pseudomonas caryophylli NCPPB 349; conditions: strain NCPPB 349, 24 ± 48 h at 25 or 37 °C, triplicate
[6] = tested on: Pseudomonas syringae pv. syringae B475; conditions: strain B475, 24 ± 48 h at 25 or 37 °C, triplicate
Bacillus megaterium QMB = conditions: strain QMB, 24 ± 48 h at 25 or 37 °C, triplicate
Bacillus subtilis PY79 = conditions: strain PY79, 24 ± 48 h at 25 or 37 °C, triplicate
Escherichia coli DH5α = conditions: strain DH5α; cyclic dipeptides, 10 μL drops of serial dilutions from 10 to 1000 μg/mL on LB soft agar; 24 ± 48 h at 25 or 37 °C; triplicate
[7] = cyclic dipeptides, 10 μL drops of serial dilutions from 10 to 1000 μg/mL on LB soft agar
[8] = lipodepsipeptides, 10 μL drops of serial dilutions from 0.1 to 1 μg/mL on LB soft agar

Row | Compound | MIC [1, 7] | MIC [2] | MIC [3, 7] | MIC [4, 7] | MIC [5, 7] | MIC [6, 7] | MIC (Bacillus megaterium QMB; [8]) | MIC (Bacillus subtilis PY79; [8]) | MIC [1, 8] | MIC [3, 8] | MIC [4, 8] | MIC [5, 8] | MIC [6, 8] | MIC (Bacillus megaterium QMB; [7]) | MIC (Bacillus subtilis PY79; [7]) | MIC (Escherichia coli DH5α)
1 | CC(C)C[C@@H]1NC(=O)[C@@H]2CCCN2C1=O [compound 13, cyclo(L-Pro-L-Leu)] | 500 µg/mL (≈ 2380 µM) | 500 µg/mL (≈ 2380 µM) | 600 µg/mL (≈ 2850 µM) | 700 µg/mL (≈ 3330 µM) | 500 µg/mL (≈ 2380 µM) | 600 µg/mL (≈ 2850 µM) | – | – | – | – | – | – | – | – | – | –
2 | WLIP methyl ester [WILP methyl ester] | – | – | – | – | – | – | 0.5 µg/mL | 0.5 µg/mL | – | – | – | – | – | – | – | –
3 | C/C=C(\NC(=O)[C@H](NC(=O)[C@H](CC(C)C)NC(=O)[C@@H](CCC(N)=O)NC(=O)[C@@H](NC(=O)[C@H](NC(=O)[C@@H](CC(C)C)NC(=O)[C@@H](COC(C)=O)NC(=O)[C@H](NC(=O)[C@@H](CC(C)C)NC(=O)[C@@H](COC(C)=O)NC(=O)[C@H]1CCCN1C(=O)/C(=C/C)NC(=O)CC(CCCCC)OC(C)=O)C(C)C)C(C)C)C(C)C)C(C)C)C(=O)N[C@H]1C(=O)N[C@@H]([C@@H](C)CC)C(=O)N[C@@H](CCOC(C)=O)C(=O)N[C@H](CCNC(C)=O)C(=O)N[C@@H](CCCCNC(C)=O)C(=O)O[C@@H]1C (stereo partly drawn) [compound 15, hexacetyl tolaasin I] (X1-[Dhb][dP][dS](Ac)[dL][dV][dS](Ac)[dL][dV]V[dQ]L[dV][Dhb][d(aThr)]I[hSer](Ac)[dDab](Ac)K(Ac); ester 14-C) | – | – | – | – | – | – | – | – | 0.8 µg/mL (≈ 0.357 µM) | 0.7 µg/mL (≈ 0.313 µM) | 0.7 µg/mL (≈ 0.313 µM) | 0.9 µg/mL (≈ 0.402 µM) | 0.8 µg/mL (≈ 0.357 µM) | – | – | –
4 | C/C=C(\NC(=O)C(NC(=O)C(CC(C)C)NC(=O)C(CCC(N)=O)NC(=O)C(NC(=O)C(NC(=O)C(CC(C)C)NC(=O)C(CO)NC(=O)C(NC(=O)C(CC(C)C)NC(=O)C(CO)NC(=O)C1CCCN1C(=O)/C(=C/C)NC(=O)CC(O)CCCCC)C(C)C)C(C)C)C(C)C)C(C)C)C(=O)NC1C(=O)N[C@@H](CC(C)C)C(=O)N[C@@H](CCO)C(=O)NC(CCN)C(=O)NC(CCCCN)C(=O)OC1C (stereo partly drawn) [compound 7, tolaasin D] ({Octanoyl(3-OH)}-[Dhb][ξP][ξS][ξL][ξV][ξS][ξL][ξV][ξV][ξQ][ξL][ξV][Dhb][ξT]L[hSer][ξDab][ξK]; ester 14-C) | – | – | – | – | – | – | 0.2 µg/mL (≈ 0.101 µM) | 0.2 µg/mL (≈ 0.101 µM) | 0.1 µg/mL (≈ 0.0503 µM) | 0.1 µg/mL (≈ 0.0503 µM) | 0.1 µg/mL (≈ 0.0503 µM) | 0.1 µg/mL (≈ 0.0503 µM) | 0.1 µg/mL (≈ 0.0503 µM) | – | – | –
5 | CCCCCC(O)CC(=O)NC(CC)C(=O)N1CCC[C@@H]1C(=O)N[C@H](CO)C(=O)N[C@H](CC(C)C)C(=O)N[C@@H](C(=O)N[C@H](CO)C(=O)N[C@H](CC(C)C)C(=O)N[C@@H](C(=O)N[C@H](C(=O)N[C@H](CCC(N)=O)C(=O)N[C@@H](CC(C)C)C(=O)N[C@@H](C(=O)NC(CC)C(=O)N[C@H]1C(=O)N[C@@H]([C@@H](C)CC)C(=O)N[C@@H](CCO)C(=O)N[C@H](CCN)C(=O)N[C@@H](CCCCN)C(=O)O[C@@H]1C)C(C)C)C(C)C)C(C)C)C(C)C (stereo partly drawn) [compound 16, tetrahydro tolaasin I] ({Octanoyl(3-OH)}-[ξAbu][dP][dS][dL][dV][dS][dL][dV]V[dQ]L[dV][ξAbu][d(aThr)]I[hSer][dDab]K; ester 14-C) | – | – | – | – | – | – | 0.2 µg/mL (≈ 0.1 µM) | 0.2 µg/mL (≈ 0.1 µM) | 0.8 µg/mL (≈ 0.402 µM) | 0.9 µg/mL (≈ 0.452 µM) | 0.9 µg/mL (≈ 0.452 µM) | 0.9 µg/mL (≈ 0.452 µM) | 0.8 µg/mL (≈ 0.402 µM) | – | – | –
6 | O=C1N[C@@H](Cc2ccc(O)cc2)C(=O)N2CCC[C@@H]12 [compound 9, cyclo(L-Pro-L-Tyr)] | 15 µg/mL (≈ 57.6 µM) | 20 µg/mL (≈ 76.8 µM) | 15 µg/mL (≈ 57.6 µM) | 15 µg/mL (≈ 57.6 µM) | 15 µg/mL (≈ 57.6 µM) | 15 µg/mL (≈ 57.6 µM) | – | – | – | – | – | – | – | 20 µg/mL (≈ 76.8 µM) | 20 µg/mL (≈ 76.8 µM) | –
7 | O=C1N[C@@H](Cc2ccc(O)cc2)C(=O)N2CCC[C@H]12 [compound 14, cyclo(D-Pro-L-Tyr)] | 800 µg/mL (≈ 3070 µM) | 800 µg/mL (≈ 3070 µM) | 800 µg/mL (≈ 3070 µM) | 900 µg/mL (≈ 3460 µM) | 800 µg/mL (≈ 3070 µM) | 800 µg/mL (≈ 3070 µM) | – | – | – | – | – | – | – | 30 µg/mL (≈ 115 µM) | 35 µg/mL (≈ 134 µM) | 20 µg/mL (≈ 76.8 µM)
8 | C/C=C(\NC(=O)[C@H](NC(=O)[C@H](CC(C)C)NC(=O)[C@@H](CCC(N)=O)NC(=O)[C@@H](NC(=O)[C@H](NC(=O)[C@@H](CC(C)C)NC(=O)[C@@H](CO)NC(=O)[C@H](NC(=O)[C@@H](CC(C)C)NC(=O)[C@@H](CO)NC(=O)[C@H]1CCCN1C(=O)/C(=C/C)NC(=O)CC(O)CCCCC)C(C)C)C(C)C)C(C)C)C(C)C)C(=O)N[C@H]1C(=O)N[C@@H]([C@@H](C)CC)C(=O)N[C@@H](CCO)C(=O)N[C@H](CCN)C(=O)N[C@@H](CCCCN)C(=O)O[C@@H]1C (stereo partly drawn) [compound 1, tolaasin I] ({Octanoyl(3-OH)}-[Dhb][dP][dS][dL][dV][dS][dL][dV]V[dQ]L[dV][Dhb][d(aThr)]I[hSer][dDab]K; ester 14-C) | – | – | – | – | – | – | 0.3 µg/mL (≈ 0.151 µM) | 0.3 µg/mL (≈ 0.151 µM) | 0.3 µg/mL (≈ 0.151 µM) | 0.3 µg/mL (≈ 0.151 µM) | 0.2 µg/mL (≈ 0.101 µM) | 0.2 µg/mL (≈ 0.101 µM) | 0.3 µg/mL (≈ 0.151 µM) | – | – | –

≈ marks a conversion by molar mass, not a printed value. Read-outs that look alike come from different tables or passages of the source. Where a SMILES comes first, the peptide text is derived from it. Bridges are numbered along the chain shown (N, C = ends). [ ]: non-standard residue; d: D form. The star is where a group is joined. ξ: configuration not given here. d(aThr) = C[C@@H](O)[C@@H](N)C(=O)O; Octanoyl(3-OH) = CCCCCC(O)CC(=O)*; X1 = CCCCCC(CC(=O)*)OC(C)=O; dDab = NCC[C@@H](N)C(=O)O; hSer = N[C@@H](CCO)C(=O)O; ξQ = NC(=O)CCC(N)C(=O)O; Dhb = C/C=C(\N)C(=O)O; ξL = CC(C)CC(N)C(=O)O; ξDab = NCCC(N)C(=O)O; ξK = NCCCCC(N)C(=O)O; ξT = CC(O)C(N)C(=O)O; ξV = CC(C)C(N)C(=O)O; ξAbu = CCC(N)C(=O)O; ξP = O=C(O)C1CCCN1; ξS = NC(CO)C(=O)O
